# Experimental data from ChEMBL document CHEMBL1147677, “Synthesis and biological evaluation of glycosidase inhibitors: gem-difluoromethylenated nojirimycin analogues” (J Med Chem, 2006).
# Legend:
# [1] = target: T1, Tissue alpha-L-fucosidase (Homo sapiens, UniProt P04066); assay: Inhibition of human placenta alpha fucosidase at pH 6.8
# T1 sequence (P04066 whole entry): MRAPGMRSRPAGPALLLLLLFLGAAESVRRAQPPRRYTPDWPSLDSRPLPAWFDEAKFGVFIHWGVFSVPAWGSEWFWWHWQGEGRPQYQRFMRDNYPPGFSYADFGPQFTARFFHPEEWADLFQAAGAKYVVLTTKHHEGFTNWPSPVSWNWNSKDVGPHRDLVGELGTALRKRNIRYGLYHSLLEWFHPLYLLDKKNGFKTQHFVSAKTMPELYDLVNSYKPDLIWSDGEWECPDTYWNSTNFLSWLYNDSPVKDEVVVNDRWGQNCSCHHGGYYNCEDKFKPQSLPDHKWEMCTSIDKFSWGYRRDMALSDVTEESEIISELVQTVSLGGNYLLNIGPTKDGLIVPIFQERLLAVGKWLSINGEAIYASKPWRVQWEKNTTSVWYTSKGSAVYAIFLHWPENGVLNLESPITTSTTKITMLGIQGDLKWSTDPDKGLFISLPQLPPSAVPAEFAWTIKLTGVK
# In short: (§1)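 Nitrophenyl glycoside substrate hydrolysis in 0.1 M sodium phosphate, pH 6.8, 25 °C. Seven cuvettes hold a fixed inhibitor concentration and seven hold none, each across varying substrate levels. The reaction is started with diluted enzyme, and 4- or 2-nitrophenol release is followed at 400 nm for 2 min. Ki = [I]/(KM′/KM − 1) from KM with and without inhibitor.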
# [2] = target: T2, Tissue alpha-L-fucosidase (Bos taurus, UniProt Q2KIM0); assay: Inhibition of bovine kidney alpha fucosidase at pH 6.8; in short: as §1
# T2 sequence (Q2KIM0 whole entry): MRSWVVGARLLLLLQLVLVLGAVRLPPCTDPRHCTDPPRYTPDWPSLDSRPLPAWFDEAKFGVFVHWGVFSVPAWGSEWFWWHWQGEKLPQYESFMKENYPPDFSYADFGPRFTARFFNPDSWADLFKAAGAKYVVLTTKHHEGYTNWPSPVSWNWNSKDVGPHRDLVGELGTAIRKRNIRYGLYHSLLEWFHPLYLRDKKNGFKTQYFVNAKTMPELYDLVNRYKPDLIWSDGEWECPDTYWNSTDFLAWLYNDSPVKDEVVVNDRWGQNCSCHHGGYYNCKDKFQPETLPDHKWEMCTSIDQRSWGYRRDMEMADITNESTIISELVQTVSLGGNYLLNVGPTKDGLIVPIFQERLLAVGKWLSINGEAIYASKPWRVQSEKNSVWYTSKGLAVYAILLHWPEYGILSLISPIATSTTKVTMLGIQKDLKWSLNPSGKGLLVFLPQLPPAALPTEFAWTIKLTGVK
Ki [1] [mM],Ki [2] [mM],Structure (SMILES)
> 1,> 1,OC[C@H]1NC[C@H](O)[C@@H](O)C1(F)F
> 1,> 1,OC[C@@H]1NC[C@@H](O)[C@@H](O)C1(F)F
> 1,> 1,OC[C@H]1NC[C@@H](O)[C@@H](O)C1(F)F
